Hits are enriched below; roughly 2.2% of the tested compounds scored in any of these assays.
PDI turbidity: inhibitors of human protein disulfide isomerase; 350,000 compounds, 0.052% hits; inhibition, % at 10 µM; AID 588391; PDI insulin aggregation turbidity, A650, 90 min;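 active = mean inhibition across replicates of 30% or more, whatever share of single replicates reach that level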
Yeast UUG start-1: modulators of yeast start codon fidelity, primary screen, whole organism, S. cerevisiae, single point, plate reader. S. cerevisiae UUG-firefly luciferase reporter, luminescence/redox ratio. activity score, % at 18.7 µM. hit rate 0.13% among 350,000;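 active = replicate mean at a twofold rise or more, about +100% in these data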;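 also: firefly luciferase made from a UUG start codon reports start codon fidelity; reporter light over untreated wells divided by growth signal over untreated wells; some hits fall short of that in this replicate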
FGF22 binding: FGF22 (human) thermal shift binding. activity (Tm shift, normalised), % at 9.99 µM. AID 651658. Q9HCT0. 340,000 compounds, 1.5% hits. recombinant FGF22 thermal shift, SYPRO orange fluorescence; percent of sucrose octasulfate shift, DMSO zero;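 active = mean Tm shift, scaled 0 neutral to 100 positive control, at about 1.3% or above, every replicate too, limit read from the data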
ERp5 inh: inhibitors of human ERp5; Q15084; ERp5 insulin aggregation, absorbance 650 nm, 90 min; inhibition, % at 9.99 µM; 350,000 compounds, 0.05% hits;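 active = mean replicate inhibition above about 25%, with every replicate also reaching it, limit read from the data, passing the limit was not always enough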
SIRT5 block: blocks human SIRT5 desuccinylation of peptide; Q9NXA8; Purified SirT5, succinyl-peptide AMC, trypsin-coupled fluorescence; inhibition, % at 15 µM; 330,000 compounds, 1.1% hits; in the data active = inhibition above about 15%
S100A4 inh HTS: S100A4-myosin IIA interaction inhibition; S100A4/TAMRA-MyoIIA peptide fluorescence polarization; inhibition, % at 10.7 µM; 360,000 compounds, 0.14% hits; AID 652163;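 active = mean inhibition of at least 70% across replicates, with every replicate also reaching that level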
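assay system = human S100A4 monomer with TAMRA-labelled myosin IIA peptide | also added = labelled myosin peptide probe, 5 nM | incubation = 5 min between mix addition and reading | control set = DMSO and TFP controls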
Yeast UUG start-2: alters UUG start codon use in yeast; shares compounds with Yeast UUG start-1; S. cerevisiae UUG-start firefly luciferase, luminescence, 4 h; 100% means double the DMSO signal; activation, % at 38 µM; 540 tested, under 10 active;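 active = signal increase whose fitted curve reaches an absolute level of 40 at a concentration under 10 µM; inactive = activity opposite to the expected increase, or the rest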
* hit, by the source's call.

`C[C@@H]1CCCCO[C@H](CN(C)Cc2ccccc2)[C@@H](C)CN([C@@H](C)CO)C(=O)c2cc(NC(=O)c3ccncc3)ccc2O1` gave FGF22 binding 0.0, ERp5 inh 10.4, SIRT5 block -4.6 and S100A4 inh HTS 0.9.
O=C(CSc1nnc2c(n1)[nH]c1ccccc12)OCc1ccccc1 was read as PDI turbidity -1.3, Yeast UUG start-1 410.0* and Yeast UUG start-2 0.8.
CC(O)(C#CCN1CCCCC1)c1ccccc1 (stereo not drawn) was read as PDI turbidity -2.2 and Yeast UUG start-1 -21.6.
CC(O)(C#CCN1CCCC1)c1ccccc1 (stereo not drawn) was read as PDI turbidity -5.1, Yeast UUG start-1 4.8 and Yeast UUG start-2 -5.0.
OC(C#CCN1CCCC1)(c1ccccc1)c1cccc(F)c1 (stereo not drawn) was read as PDI turbidity -6.0 and Yeast UUG start-2 12.2.
Screening COc1ccccc1C(=O)NCC(=O)OCC(=O)c1ccc2c(c1)-c1ccccc1C2 returned PDI turbidity -3.5, Yeast UUG start-1 551.0* and Yeast UUG start-2 3.3.
Screening O=C(NCC[C@H]1CC[C@H](NC(=O)C2CCCCC2)[C@H](CO)O1)c1cnccn1 returned Yeast UUG start-1 157.8*, FGF22 binding -0.1, ERp5 inh -1.7, SIRT5 block 0.2, S100A4 inh HTS 17.2 and Yeast UUG start-2 inactive.
O=S(=O)(N[C@H]1CC[C@@H](CCn2cc(C3(O)CCCC3)nn2)O[C@@H]1CO)c1ccc(F)cc1 was read as Yeast UUG start-1 177.5*, FGF22 binding -0.1, ERp5 inh 1.6, SIRT5 block -0.9, S100A4 inh HTS -1.1 and Yeast UUG start-2 inactive.
For O=S(=O)(N[C@@H]1CC[C@H](CCn2cc(C3(O)CCCC3)nn2)O[C@@H]1CO)c1ccc(F)cc1 the results were Yeast UUG start-1 -2.2, FGF22 binding 0.1, ERp5 inh 2.0, SIRT5 block 1.2 and S100A4 inh HTS -3.3.
For O=C(N[C@H]1CC[C@H](CCn2cc(C3(O)CCCC3)nn2)O[C@H]1CO)C1CCCCC1 the results were Yeast UUG start-1 162.3*, FGF22 binding 0.0, ERp5 inh -1.6, SIRT5 block -4.6, S100A4 inh HTS -15.2 and Yeast UUG start-2 inactive.
Screening C[C@H]1CN([C@@H](C)CO)C(=O)Cc2cc(NC(=O)Nc3ccccc3)ccc2O[C@@H]1CN(C)Cc1ccc(C(=O)O)cc1 returned Yeast UUG start-1 -3.4, FGF22 binding -0.1, ERp5 inh -3.4, SIRT5 block -2.5 and S100A4 inh HTS 3.0.
`CCCC(=O)Nc1ccc2c(c1)OC[C@H](C)N(CCC(F)(F)F)C[C@@H](C)[C@@H](OC)CN(C)C2=O` gave Yeast UUG start-1 14.5, FGF22 binding -0.3, ERp5 inh -0.8, SIRT5 block 5.0 and S100A4 inh HTS 3.1.
C[C@H]1CN([C@@H](C)CO)C(=O)c2cccc(NC(=O)c3nc4ccccc4s3)c2O[C@@H]1CN(C)Cc1ccc(-c2ccccc2)cc1 was read as Yeast UUG start-1 4.9, FGF22 binding 0.0, ERp5 inh -10.1, SIRT5 block 1.8 and S100A4 inh HTS -15.7.
For COC1(OC)C(/C=C/c2ccc(C)cc2)C(C#N)(C#N)C1(OC)OC (stereo not drawn) the results were PDI turbidity -2.3, Yeast UUG start-1 548.6* and Yeast UUG start-2 18.0.
For CCCc1[nH]nc2c1C(Cc1ccccc1)C(C#N)=C(N)O2 (stereo not drawn) the results were PDI turbidity 9.2, Yeast UUG start-1 500.8* and Yeast UUG start-2 9.8.
For CCc1[nH]nc2c1C(Cc1ccccc1)C(C#N)=C(N)O2 (stereo not drawn) the results were PDI turbidity 0.7 and Yeast UUG start-1 -21.0.
Screening CO[C@H]1CN(C)C(=O)c2cc(C#N)ccc2OCC[C@@H]2CC[C@@H](OC)[C@H](CN(C)C(=O)[C@H]1C)O2 returned FGF22 binding 0.0, ERp5 inh -1.0, SIRT5 block 0.6 and S100A4 inh HTS 1.3.
For CC(C)c1ccc(CCNC(=O)c2ccc([N+](=O)[O-])cc2)cc1 the results were PDI turbidity 10.4, Yeast UUG start-1 405.9*, FGF22 binding 0.0, ERp5 inh 4.4, SIRT5 block -3.1, S100A4 inh HTS -1.2 and Yeast UUG start-2 1.3.
`O=C(NCCc1ccc([N+](=O)[O-])cc1)c1ccccc1` gave PDI turbidity -8.1, FGF22 binding 0.0, ERp5 inh 1.6, SIRT5 block -0.8 and S100A4 inh HTS 3.5.
COCC(=O)Nc1ccc2c(c1)[C@@H]1C[C@H](CC(=O)NC3CCCCC3)O[C@H](CO)[C@@H]1O2 was read as Yeast UUG start-1 107.2*, FGF22 binding 0.3, ERp5 inh 1.7, SIRT5 block 0.8, S100A4 inh HTS -2.6 and Yeast UUG start-2 inactive.
Screening COCC(=O)Nc1ccc2c(c1)[C@H]1C[C@H](CC(=O)NC3CCCC3)O[C@@H](CO)[C@H]1O2 returned Yeast UUG start-1 -12.0, FGF22 binding -0.1, ERp5 inh 0.1, SIRT5 block 0.8 and S100A4 inh HTS -5.3.
For O=C(C[C@@H]1C[C@@H]2c3cc(NC(=O)C4CCC4)ccc3O[C@@H]2[C@H](CO)O1)NCC1CC1 the results were Yeast UUG start-1 -6.8, FGF22 binding -0.1, ERp5 inh 2.0, SIRT5 block -4.8 and S100A4 inh HTS -14.1.
`O=C(C[C@@H]1C[C@H]2c3cc(NC(=O)C4CCC4)ccc3O[C@H]2[C@H](CO)O1)NCC1CC1` gave Yeast UUG start-1 103.7*, FGF22 binding -0.4, ERp5 inh -3.3, SIRT5 block -4.0, S100A4 inh HTS -14.9 and Yeast UUG start-2 inactive.
Screening O=C(C[C@@H]1C[C@H]2c3cc(NC(=O)C4CCOCC4)ccc3O[C@H]2[C@@H](CO)O1)NC1CCCC1 returned Yeast UUG start-1 -1.1, FGF22 binding -0.1, ERp5 inh 5.3, SIRT5 block -5.0 and S100A4 inh HTS -13.8.
O=C(C[C@H]1C[C@@H]2c3cc(NC(=O)C4CCOCC4)ccc3O[C@@H]2[C@H](CO)O1)NC1CCCC1 was read as Yeast UUG start-1 102.1*, FGF22 binding -0.1, ERp5 inh -3.6, SIRT5 block -1.5, S100A4 inh HTS -19.1 and Yeast UUG start-2 inactive.
Screening CCCNC(=O)C[C@@H]1CC[C@@H]2[C@H](COc3ccc(NC(=O)c4cccc(Cl)c4)cc3C(=O)N2C)O1 returned Yeast UUG start-1 7.4, FGF22 binding 0.0, ERp5 inh 4.6, SIRT5 block -10.7 and S100A4 inh HTS 34.2.
For O=C(c1ccncc1)N1CC2(C1)[C@H](c1ccccc1)[C@H](CO)N2Cc1ccccn1 the results were FGF22 binding -0.2, ERp5 inh -4.1, SIRT5 block 3.9 and S100A4 inh HTS 3.6.

Ordered by length of the SMILES (rising): three of the compounds above
CC(O)(C#CCN1CCCC1)c1ccccc1 (stereo not drawn) was read as PDI turbidity -5.1, Yeast UUG start-1 4.8 and Yeast UUG start-2 -5.0.
For CCc1[nH]nc2c1C(Cc1ccccc1)C(C#N)=C(N)O2 (stereo not drawn) the results were PDI turbidity 0.7 and Yeast UUG start-1 -21.0.
O=C(C[C@H]1C[C@@H]2c3cc(NC(=O)C4CCOCC4)ccc3O[C@@H]2[C@H](CO)O1)NC1CCCC1 was read as Yeast UUG start-1 102.1*, FGF22 binding -0.1, ERp5 inh -3.6, SIRT5 block -1.5, S100A4 inh HTS -19.1 and Yeast UUG start-2 inactive.

Screens as filed in PubChem BioAssay.
